According to paper PMC7946667 (Cancer Chemotherapy and Pharmacology, 2021):
Read-outs that look alike come from different tables or passages of the source.

Test system: CYP2C9
Conditions: median [min, max]
[1] = warfarin 10 mg single oral dose + ceritinib 750 mg QD (Day 28)
[2] = warfarin 10 mg single oral dose alone (Day 1)

CC(=O)C[C@@H](c1ccccc1)c1c(O)c2ccccc2oc1=O [S-warfarin]
Tmax [1]: 2.75 [0.250; 6.40] h
Tmax [2]: 1.47 [0.483; 3.92] h

CC(=O)C[C@H](c1ccccc1)c1c(O)c2ccccc2oc1=O [R-warfarin]
Tmax [1]: 2.83 [0.250; 71.2] h
Tmax [2]: 1.98 [0.483; 21.7] h
